Data taken from patent US8426427B2, “Fused heterocyclic derivative, pharmaceutical composition comprising the derivative, and use of the composition for medical purposes” (Kissei Pharmaceutical Co., Ltd., priority 2007, dated 2013).

Test: Assay for oral absorbability: plasma drug concentration after oral administration to rats
Details: fasted male SD rats, oral 3 mg/kg
Protocol: Assay for Oral Absorbability
1) Preparation of the Samples for Measurement of the Drug Concentration after Oral Administration
As experimental animal, overnight fasted SD rats (Charles River, male, 7 weeks of age, 170-210 g) were used. Three mg of a test compound was dissolved by adding 0.2 mL of N,N-dimethylacetoamide, 9.794 mL of 0.5% aqueous methylcellulose solution and 0.006 mL of 2N NaOH, and then 0.3 mg/mL solution was prepared. The body weights of rats were measured, and the solution of the test compound was administered orally at the dose of 10 mL/kg (3 mg/kg). The oral administration was performed with gastric tube for rat and 2.5 mL syringe. The sampling times for collection of blood were 15, 30, 60, 120, 240 and 360 minutes after the oral administration. The blood was centrifuged, and the plasma was used as the sample for measurement of the drug concentration in blood.
2) Measurement of the Drug Concentration
To 0.025 mL of the plasma obtained in 1) described above, 0.1 mL of an adequate internal standard material was added according to the usual method, and then deproteinization was performed by adding 0.875 mL of acetonitrile. After centrifugation, 0.005 mL of the supernatant was injected into LC-MS/MS. The drug concentration in plasma was measured by LC-MS/MS method under the conditions as follows. […]

O=C(O)c1scc2[nH]c(=O)n(-c3cc(S(=O)(=O)N4CCCc5ccccc54)ccc3Cl)c(=O)c12
C360 (plasma drug concentration at 360 minutes after administration): 21
